Values of other authors as cited in article PMC11266932, “Enhanced absorption of prenylated cinnamic acid derivatives from Brazilian green propolis by turmeric in humans and rats” (Food Science & Nutrition, 2024).

Conditions: hydrolyzed to drupanin and 3‐phenylpropionic acid; ref Yamaga et al., 2021, 2022; cited from earlier work

## Baccharin
  detection in plasma after BGP consumption: not detected
